Assay results reported in patent US8030300B2, “Ligands for nicotinic acetylcholine receptors, and methods of making and using them” (priority 2003, dated 2011).
Like-named read-outs stand apart in the source and are kept apart here.

Amino acid sequences for entries named in this document (tags omitted). Residues count along the entry.
UniProt P12389, 28-511 limits assumed: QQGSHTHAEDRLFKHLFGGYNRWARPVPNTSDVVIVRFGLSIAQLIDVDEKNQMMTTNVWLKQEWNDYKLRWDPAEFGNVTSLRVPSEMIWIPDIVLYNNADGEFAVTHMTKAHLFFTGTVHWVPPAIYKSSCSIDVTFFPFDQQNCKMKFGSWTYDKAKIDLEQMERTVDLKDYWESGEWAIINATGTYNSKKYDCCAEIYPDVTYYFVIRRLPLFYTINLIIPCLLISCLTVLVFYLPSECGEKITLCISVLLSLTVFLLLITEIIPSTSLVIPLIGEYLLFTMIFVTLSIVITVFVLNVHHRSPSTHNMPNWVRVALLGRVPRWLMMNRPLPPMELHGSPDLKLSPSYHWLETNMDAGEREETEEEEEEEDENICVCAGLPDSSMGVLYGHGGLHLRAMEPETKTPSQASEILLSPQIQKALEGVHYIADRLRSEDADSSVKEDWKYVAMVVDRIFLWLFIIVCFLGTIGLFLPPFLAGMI
UniProt P12390, 25-500 limits assumed: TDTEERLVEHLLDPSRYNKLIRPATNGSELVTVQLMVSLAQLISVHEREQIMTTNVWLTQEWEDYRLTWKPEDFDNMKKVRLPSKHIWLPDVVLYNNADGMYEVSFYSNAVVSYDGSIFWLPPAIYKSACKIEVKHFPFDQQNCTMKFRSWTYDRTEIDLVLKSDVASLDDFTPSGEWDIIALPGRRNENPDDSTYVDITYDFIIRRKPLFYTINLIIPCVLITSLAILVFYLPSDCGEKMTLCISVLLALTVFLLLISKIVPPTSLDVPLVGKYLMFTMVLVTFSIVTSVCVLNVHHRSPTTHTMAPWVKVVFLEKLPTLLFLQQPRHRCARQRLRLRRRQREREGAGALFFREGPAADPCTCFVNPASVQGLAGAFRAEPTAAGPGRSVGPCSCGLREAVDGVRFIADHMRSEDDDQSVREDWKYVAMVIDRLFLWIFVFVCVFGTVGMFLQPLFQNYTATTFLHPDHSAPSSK
UniProt P12392, 21-495 limits assumed: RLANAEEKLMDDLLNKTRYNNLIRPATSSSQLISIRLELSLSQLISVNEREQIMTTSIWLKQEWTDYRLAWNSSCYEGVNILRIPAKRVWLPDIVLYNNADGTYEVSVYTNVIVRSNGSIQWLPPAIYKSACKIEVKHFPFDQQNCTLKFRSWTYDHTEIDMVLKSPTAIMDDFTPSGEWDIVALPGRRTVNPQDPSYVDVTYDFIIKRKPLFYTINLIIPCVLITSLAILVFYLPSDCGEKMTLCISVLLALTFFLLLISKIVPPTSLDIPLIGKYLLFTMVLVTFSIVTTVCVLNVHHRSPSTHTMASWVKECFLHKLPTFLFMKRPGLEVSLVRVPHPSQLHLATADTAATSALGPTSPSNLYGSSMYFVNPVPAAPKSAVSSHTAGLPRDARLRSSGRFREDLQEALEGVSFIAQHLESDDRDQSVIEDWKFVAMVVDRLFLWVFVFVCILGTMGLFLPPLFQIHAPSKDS
UniProt P04757, 26-499 limits assumed: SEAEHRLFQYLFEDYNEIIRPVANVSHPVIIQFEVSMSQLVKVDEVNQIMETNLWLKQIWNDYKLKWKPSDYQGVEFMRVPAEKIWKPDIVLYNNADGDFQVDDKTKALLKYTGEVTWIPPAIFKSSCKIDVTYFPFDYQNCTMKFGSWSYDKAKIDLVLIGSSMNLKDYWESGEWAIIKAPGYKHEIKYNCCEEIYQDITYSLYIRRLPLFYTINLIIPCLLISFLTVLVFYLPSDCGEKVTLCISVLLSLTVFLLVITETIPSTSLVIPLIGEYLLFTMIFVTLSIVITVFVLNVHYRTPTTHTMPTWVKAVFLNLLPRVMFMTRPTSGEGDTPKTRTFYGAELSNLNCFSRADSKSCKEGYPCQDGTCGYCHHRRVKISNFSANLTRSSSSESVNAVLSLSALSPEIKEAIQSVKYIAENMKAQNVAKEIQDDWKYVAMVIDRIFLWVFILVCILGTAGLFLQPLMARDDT
UniProt P09483, 31-630 limits assumed: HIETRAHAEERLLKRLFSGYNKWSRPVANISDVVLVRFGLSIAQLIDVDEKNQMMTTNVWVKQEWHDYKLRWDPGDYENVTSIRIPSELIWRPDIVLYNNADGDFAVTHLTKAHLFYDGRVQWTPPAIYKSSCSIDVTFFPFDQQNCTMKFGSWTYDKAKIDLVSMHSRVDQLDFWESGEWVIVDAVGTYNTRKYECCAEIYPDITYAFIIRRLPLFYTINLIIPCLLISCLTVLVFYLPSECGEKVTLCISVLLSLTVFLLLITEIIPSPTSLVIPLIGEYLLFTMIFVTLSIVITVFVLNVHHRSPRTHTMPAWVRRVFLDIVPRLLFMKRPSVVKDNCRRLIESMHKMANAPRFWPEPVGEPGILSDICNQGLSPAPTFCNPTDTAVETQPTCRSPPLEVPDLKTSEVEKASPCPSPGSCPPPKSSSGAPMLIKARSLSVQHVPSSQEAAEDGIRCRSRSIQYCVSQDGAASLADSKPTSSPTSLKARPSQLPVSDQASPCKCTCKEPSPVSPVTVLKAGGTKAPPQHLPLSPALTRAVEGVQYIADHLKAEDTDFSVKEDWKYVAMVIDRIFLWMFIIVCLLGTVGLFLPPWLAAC

Experiments:
α2β2 nAChR subtype = α2β2 nAChR subtype (Rattus norvegicus, UniProt P12389+P12390); settings: read-out: Ki α2β2
α2β4 nAChR subtype = α2β4 nAChR subtype (Rattus norvegicus, UniProt P12389+P12392); settings: read-out: Ki α2β4
α3β2 nAChR subtype = α3β2 nAChR subtype (Rattus norvegicus, UniProt P04757+P12390); settings: read-out: Ki α3β2
α3β4 nAChR subtype = α3β4 nAChR subtype (Rattus norvegicus, UniProt P04757+P12392); settings: read-out: Ki α3β4; Table 1; mean of 3 (1, 2: 3 to 6) independent measurements
α4β2 nAChR subtype = α4β2 nAChR subtype (Rattus norvegicus, UniProt P09483+P12390)
α4β4 nAChR subtype = α4β4 nAChR subtype (Rattus norvegicus, UniProt P09483+P12392); settings: read-out: Ki α4β4
[1] = target: receptors in rat forebrain (mainly α4β2) (Rattus norvegicus, UniProt P09483+P12390); settings: read-out: Ki Rat forebrain; Table 1; mean of 3 (1, 2: 3 to 6) independent measurements
[2] = system: receptors in rat forebrain (mainly α4β2); settings: Table 3; ratio of the corresponding Ki values
[3] = Table 1, mean of 3 (1, 2: 3 to 6) independent measurements

**Q.** `CN1CCC[C@H]1COc1cncc(C#Cc2ccccc2)c1` was tested. Which Ki (α2β2 nAChR subtype; [3]) did it give?
**A.** 4.52 nM

**Q.** What about the Ki (α2β4 nAChR subtype; [3]) of the same compound?
**A.** 437 nM

**Q.** And the Ki (α3β2 nAChR subtype; [3])?
**A.** 4.96 nM

**Q.** And the Ki (α3β4 nAChR subtype)?
**A.** 2460 nM

**Q.** What about the Ki (α4β2 nAChR subtype; read-out: Ki α4β2, Table 1, mean of 3 (1, 2: 3 to 6) independent measurements) of the same compound?
**A.** 0.936 nM

**Q.** What about the Ki (α4β4 nAChR subtype; [3]) of the same compound?
**A.** 369 nM

**Q.** And the Ki [1]?
**A.** 6.4 nM

**Q.** Which Ki (α3β2 nAChR subtype) does the source give for `OC1CC2CC(c3ccc(Cl)nc3)C1N2` (single isomer, unassigned) here?
**A.** 8.9 nM

**Q.** Which Ki (α2β2 nAChR subtype) does the source give for `OC1CC2NC1CC2c1ccc(Cl)nc1` (stereo not drawn) [Ligand 7, 2-exo-(2-Chloro-5-pyridyl)-5-endo-hydroxyl-7-azabicyclo[2.2.1]heptane] here?
**A.** 16.9 nM

**Q.** And the Ki (α2β4 nAChR subtype)?
**A.** 67.5 nM

**Q.** And the Ki (α3β2 nAChR subtype)?
**A.** 19.3 nM

**Q.** And the Ki (α4β4 nAChR subtype)?
**A.** 72.8 nM

**Q.** `OCCCCC#Cc1cncc(C2CC3CCC2N3)c1` (stereo not drawn) [Ligand 31, 2-exo-(5-(6-Hydroxy-1-hexynyl)-3-pyridyl)-7-azabicyclo[2.2.1]heptane] was tested. Which “affinity (Ki) ratios for an α subunit paired with the β2 versus the β4 subunit” value (α4β2 nAChR subtype; text b208) did it give?
**A.** up to 1,800

**Q.** And the “folds less active than epibatidine (2) at each β2 containing subtypes” value (α4β2 nAChR subtype; text b208)?
**A.** 3-14 folds

**Q.** What about the “more selective for α4β2 over α3β4 than the corresponding parent compounds 7, 8, and 2” value (α4β2 nAChR subtype; text b210) of the same compound?
**A.** 2 orders of magnitude

**Q.** What about the “Affinity ratio (α3β4/Forbrain)” value [2] of the same compound?
**A.** 1,237
